Laboratory results reported in article PMC2009656 (British Journal of Cancer, 1978).
Read-outs that look alike come from different tables or passages of the source.

System: isolated liver rough endoplasmic reticulum (RER)
Conditions: for Degranulation (%): Table IV.3
[1] = incubate 8.5 ug/ml, 2 h, 25 C, >5% regarded as positive
[2] = incubate 12 ug/ml, 2 h, 25 C, >5% regarded as positive

Molecule	Degranulation (%) [2]	also measured
Nc1cccc2ccccc12		Degranulation (%) [1]: 9.9%
Nc1ccccc1C(=O)O	> 37%	
Cc1c[n+]([O-])c2ccccc2c1[N+](=O)[O-]	1 -6%	
EDTA		degranulation by specific-activity measurements (RER treated with 5 mM EDTA): 64.4%; Specific activity (d/s/mg) Protein of stripped RER (Table IV.1, RER treated with 5 mM EDTA, untreated RER 2034, SER 381): 969 d/s/mg; Specific activity (d/s/mg) RNA of stripped RER (Table IV.1, RER treated with 5 mM EDTA, untreated RER 13,390, SER 19,106): 13,269 d/s/mg
CN(C)P(=O)(N(C)C)N(C)C	2-8%	
Cc1c2ccccc2c(C)c2ccccc12	1-3%	
1,1'-Ethylene-2,2'-bipyridinium dibromide	1- 7%	
COP(=O)(OC)OC	> 5.8%	
CCOC(N)=O	3 - 8%	
D.D.T.	1 -5%	
c1cc2cccc3c4cccc5cccc(c(c1)c23)c54	0-0%	
O=C1c2ccccc2C(=O)c2ccccc21	4.7%	
Oc1cccc2ccccc12	1 -3%	
S=C1NCCN1	7-8%	
Nc1ccc2ccccc2c1		result in the degranulation test (evaluation screen): positive
O=C(O)c1ccccc1	3 -5%	
Cc1cc2nc3c(=O)[nH]c(=O)nc-3n(C[C@H](O)[C@H](O)[C@H](O)CO)c2cc1C	> 5.6%	
c1ccc2[nH]ccc2c1	0 -8%	

Molecule	Degranulation (%) [2]	also measured
O=[N+]([O-])c1ccccc1	4-5%	
ClC1=C(Cl)[C@]2(Cl)[C@@H]3[C@@H]4C[C@@H]([C@H]5O[C@@H]45)[C@@H]3[C@@]1(Cl)C2(Cl)Cl	4.3%	
c1ccc2nc3ccccc3cc2c1	3.5%	
Oc1ccc2ccccc2c1	1-4%	
c1ccc2ccccc2c1	0-8%	
CN(C)C(=O)Cl	3 -5%	
Dimethylformamide	0-3%	
Oc1cccc(O)c1	0-4%	
Nc1ccc(-c2ccc(N)cc2)cc1	21.7%	
CO[C@@]12[C@H](COC(N)=O)C3=C(C(=O)C(C)=C(N)C3=O)N1C[C@@H]1N[C@@H]12		Degranulation (%) (incubate 12 ug/ml, + generating system): 0-4%; result in the degranulation test (in the absence of NADPH): positive; result in the degranulation test (in the presence of NADPH): negative
Nc1ccccc1	2 -5%	
3,4,9,10-Dibenzpyrene	9.5%	
O=[N+]([O-])c1ccc(O)c([N+](=O)[O-])c1	6-8%	
2,4,5-Trichlorophenoxyacetate	0.1%	
CC12CCC(CC1=O)C2(C)C (stereo not drawn)	3 -4%	
O=NN(c1ccccc1)c1ccccc1	1 -8%	
COc1cc2c(c(OC)c1OC)-c1ccc(OC)c(=O)cc1[C@@H](NC(C)=O)CC2		Degranulation (%) [1]: 4.4%
